Biological target: Melanocyte-stimulating hormone receptor (Mus musculus, UniProt Q01727)
Test: Agonist activity at mouse MC1 receptor expressed in HEK-293 cells assessed as cAMP response measured after 2 hrs incubation by cAMP Alphascreen assay
Format: functional, cell-based, HEK293

Chains of the proteins cited; added tags and fusions are not shown. Lines headed by an entry give the natural chain unless they say otherwise; changes in a name come on top.
UniProt Q01727: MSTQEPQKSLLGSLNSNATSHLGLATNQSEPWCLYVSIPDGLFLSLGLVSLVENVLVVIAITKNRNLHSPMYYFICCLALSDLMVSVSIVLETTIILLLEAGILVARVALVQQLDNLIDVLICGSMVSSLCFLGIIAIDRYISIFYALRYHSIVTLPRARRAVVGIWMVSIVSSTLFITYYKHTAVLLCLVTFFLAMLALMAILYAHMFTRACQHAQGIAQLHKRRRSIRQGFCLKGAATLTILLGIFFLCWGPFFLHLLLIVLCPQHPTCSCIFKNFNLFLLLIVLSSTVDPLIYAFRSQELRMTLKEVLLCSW

Structure (SMILES) | EC50 [nM]
CC(=O)N[C@@H](Cc1c[nH]cn1)C(=O)N[C@@H](Cc1ccccc1)C(=O)N[C@@H](CCCN=C(N)N)C(=O)N[C@@H](Cc1c[nH]c2ccccc12)C(N)=O | 2360
CC(=O)N[C@@H](Cc1cnc[nH]1)C(=O)N[C@H](Cc1ccccc1)C(=O)N[C@@H](CCCN=C(N)N)C(=O)N[C@@H](Cc1c[nH]c2ccccc12)C(N)=O | 18

Source: ChEMBL document CHEMBL3580664, “Synthesis and Pharmacology of α/β(3)-Peptides Based on the Melanocortin Agonist Ac-His-dPhe-Arg-Trp-NH2 Sequence” (ACS Med Chem Lett, 2015)
